# scFv variants of Ab-91 (heavy chain) against a SARS-CoV-2 spike peptide

Antigen: PDVDLGDISGINAS, a 14-residue peptide of the SARS-CoV-2 spike HR2 region.

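The library (AAYL51) carries one to three amino acid substitutions per variant, with no insertions or deletions. AlphaSeq pools MATa yeast showing the antibodies with MATalpha yeast showing the peptide. Mating (16 h, 30 °C) was followed by selection of diploids and sequencing of their barcodes. Scores were corrected for input abundance and mapped to Kd with protein pairs of known affinity run in the same pool. The assay was run in three technical replicates.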

Each scFv is VL, a 15-residue (Gly4Ser)3 linker, VH, as in the parent Ab-91, and differs from it in the CDRs of the heavy chain only.
VL: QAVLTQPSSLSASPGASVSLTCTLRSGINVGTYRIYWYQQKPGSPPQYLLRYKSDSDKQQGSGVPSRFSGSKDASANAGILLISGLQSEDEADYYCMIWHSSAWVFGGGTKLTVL
VH: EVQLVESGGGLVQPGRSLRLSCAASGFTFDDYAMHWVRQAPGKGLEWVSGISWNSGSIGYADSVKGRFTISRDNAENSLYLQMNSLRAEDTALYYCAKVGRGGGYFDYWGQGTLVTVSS

Changes read parent residue, position, new residue, counted from the first residue of the VH shown.
This list gathers variants with a substitution at S52 (VH, numbered from residue 1).
Affinities are written as log10 Kd with Kd in nM; a lower number is a better binder.
Averages over replicates are reported, and they cover detected replicates only.
A pair that was not seen in any replicate is written "nd"; this usually means weak binding, but a binder can also be missed.
Background: pairings of library AAYL51 with three empty control strains gave a value in 21% of cases (median 4.54, 5th percentile 3.26). Values in that range, when seen in few replicates, are hard to tell from nonspecific mating.
In this assay the parent's reference entry averaged 1.86; its copy inside this library read 0.88.

changes,"mean, log10 nM",seen in
S52Y/W53H/N54H,nd,0/3
S52M/W53E/G104M,3.19,1/3
G26W/S52A/N54Q,5.17,3/3
G50S/S52P/S57L,nd,0/3
T28M/D31S/S52W,3.84,2/3
G26M/S52L/S55G,nd,0/3
S52T/A61M/G103L,nd,0/3
M34R/S52L/S55P,3.82,1/3
S52L/W53P/I58C,nd,0/3
S52P/S55K,5.44,2/3
S52G/S63Y/V64I,2.95,3/3
M34E/S52I/G104A,5.14,1/3
S52V/A61L/G103R,nd,0/3
M34T/S52A/G56D,4.51,2/3

A selection of 2 entries from above:

| changes | mean, log10 nM | seen in |
|---|---|---|
| S52G/S63Y/V64I | 2.95 | 3/3 |
| S52L/W53P/I58C | nd | 0/3 |

The measurements come from Engelhart et al. 2022 (doi:10.1038/s41597-022-01779-4) through the FLAb antibody collection.